Assay results from patent publication US7238213B2, “Cell-based assays employing voltage and calcium dyes” (priority 2001, dated 2007).

By UniProt entry, the sequences of proteins in these tests, tags left out. Residues count along the entry.
UniProt P47871, 26-477, species assumed: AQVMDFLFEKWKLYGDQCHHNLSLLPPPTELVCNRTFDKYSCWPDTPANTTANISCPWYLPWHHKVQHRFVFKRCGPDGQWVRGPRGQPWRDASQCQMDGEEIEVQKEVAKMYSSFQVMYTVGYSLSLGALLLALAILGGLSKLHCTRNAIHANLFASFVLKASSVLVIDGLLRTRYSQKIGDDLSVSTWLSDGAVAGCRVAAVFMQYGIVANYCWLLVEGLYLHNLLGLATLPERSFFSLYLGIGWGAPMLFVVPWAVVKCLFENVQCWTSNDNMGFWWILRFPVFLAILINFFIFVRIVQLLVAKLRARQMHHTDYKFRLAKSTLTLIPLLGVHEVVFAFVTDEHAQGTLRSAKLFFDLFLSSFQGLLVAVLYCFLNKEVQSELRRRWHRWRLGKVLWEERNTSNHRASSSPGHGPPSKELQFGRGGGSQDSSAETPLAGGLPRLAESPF

Molecular target: T1, GCGR (Homo sapiens, UniProt P47871)
T1 construct: expressed in transfected cells
Test: CNG channel voltage dye assay with quencher dyes, cell line ASC0089 (GCGR)
Assay type: cell-based

For glucagon, the “maximal response Fmax/Fb” value was 4.6 and 4.2 and 4.9 and 4.

Where “and” joins values, the source holds several entries; their conditions need not be identical. Identical values can stand only once.
